## Experimental melting point values from OPERA 2.9

From the experimental data distributed with OPERA 2.9.

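The OPERA project collected these measurements from public sources as training and test data for property models. The files give a single number for a compound and property, which may rest on several reports. How each value was measured is not recorded, so precision varies. Where a salt, mixture or single isomer is drawn, the source does not say that exactly this form was tested. Some upstream entries may be estimates or bounds without being marked so.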

The melting point is given in degrees Celsius. The databases behind each value are named after "via".

For CO/N=C1\C[C@]2(C[C@@H]3C[C@@H](CC=C(C)C[C@@H](C)C=CC=C4CO[C@@H]5[C@H](O)C(C)=C[C@@H](C(=O)O3)[C@]45O)O2)O[C@H](/C(C)=C/C(C)C)[C@H]1C [Moxidectin] the data give MP 150 °C (via OCHEM). Listed for O=C(O)CCn1cccn1 [3-(1H-pyrazol-1-yl)propanoic acid]: MP 77 °C (via OCHEM). For Cc1ccc2oc(-c3ccc(C=Cc4ccc(-c5nc6cc(C)ccc6o5)cc4)cc3)nc2c1 the data give MP 282 °C (via eChemPortal). For Cc1cc2ccc3cc(C)cc4ccc(c1)c2c34 [2,7-Dimethylpyrene] the data give MP 230 °C (via PubChem).

The entry for CCOC(=O)Nc1ccc(C(=O)O)cc1 [4-((Ethoxycarbonyl)amino)benzoic acid] lists MP 171 °C (via OCHEM). Nc1cccc(S(=O)(=O)Nc2ccccc2)c1 [Benzenesulfonamide, 3-amino-N-phenyl-] is reported with MP 128 °C (via OCHEM). Cc1ccc(CN2CC(C(=O)O)CC2=O)cc1 (stereo unspecified) is reported with MP 154 °C (via OCHEM). NC(CC(=O)O)c1cccs1 (stereo unspecified) [3-Amino-3-(thiophen-2-yl)propanoic acid] is reported with MP 220 °C (via OCHEM).

For Cc1ccc(-n2c(-c3ccc(Cl)cc3)n[nH]c2=S)cc1 the data give MP 142 °C (via OCHEM). The entry for COc1cc(OC)cc(C(=O)Nc2ccc(C(=O)O)c(O)c2)c1 [4-[(3,5-dimethoxybenzoyl)amino]-2-hydroxybenzoic acid] lists MP 220 °C (via OCHEM). CC1=CCC(=C(C)C)CC1 [Terpinolene] is reported with MP 2.5 °C (via OCHEM, PubChem, eChemPortal). Cc1cc(N)n(Cc2ccccc2)n1 [1-benzyl-3-methyl-1H-pyrazol-5-amine] is reported with MP 69 °C (via OCHEM).

Cc1ccc(N)cc1S(N)(=O)=O [5-Amino-2-methylbenzenesulfonamide] is reported with MP 152 °C (via OCHEM). Cc1c(N)cccc1C(N)=O [3-Amino-2-methylbenzamide] has MP 174 °C (via OCHEM). For O=C(O)Cc1ccc(-n2cnnn2)cc1 [(4-Tetrazol-1-yl-phenyl)-acetic acid] the data give MP 172 °C (via OCHEM). For CNS(=O)(=O)c1ccc(C(=O)O)cc1 [4-[(methylamino)sulfonyl]benzoic acid] the data give MP 248 °C (via OCHEM).

For CCCOc1ccc(OCC(=O)O)cc1 [(4-propoxyphenoxy)acetic acid] the data give MP 107 °C (via OCHEM). Listed for CC(C)CNS(=O)(=O)c1ccc(C(=O)O)cc1 [4-[(Isobutylamino)sulfonyl]benzoic acid]: MP 239 °C (via OCHEM). CC(=O)c1cc(OC(F)(F)F)ccc1O [1-[2-Hydroxy-5-(trifluoromethoxy)phenyl]ethan-1-one] has MP 29.5 °C (via OCHEM). For O=C1CSc2ccc(C(=O)O)cc2N1 [3-oxo-3,4-dihydro-2H-1,4-benzothiazine-6-carboxylic acid] the data give MP 252 °C (via OCHEM).

Listed for O=C(O)c1ccc(N2CCNC2=O)cc1 [4-(2-Oxoimidazolidin-1-yl)benzoic acid]: MP 314 °C (via OCHEM). For C=CCn1c(=S)[nH]c2sc3c(c2c1=O)CCC(C)C3 (stereo unspecified) the data give MP 229 °C (via OCHEM). Listed for C1CCC(P(CP(C2CCCCC2)C2CCCCC2)C2CCCCC2)CC1 [Bis(dicyclohexylphosphino)methane]: MP 98.5 °C (via OCHEM). The entry for COc1ccc(C(F)(F)F)cc1CBr [2-(Bromomethyl)-1-methoxy-4-(trifluoromethyl)benzene] lists MP 35.5 °C (via OCHEM).

Cc1nn(C2CCS(=O)(=O)C2)c(C)c1C=O (stereo unspecified) has MP 123 °C (via OCHEM). For CC(=O)Nc1ncc2ncn(COCCOC(C)=O)c2n1 [2-[(2-Acetamido-9H-purin-9-yl)methoxy]ethyl acetate] the data give MP 134 °C (via OCHEM). Listed for COc1c(F)c(F)cc(C(=O)O)c1F [2,4,5-Trifluoro-3-methoxybenzoic acid]: MP 114.5 °C (via OCHEM). For O=C(O)c1cc([N+](=O)[O-])ccc1N1CCCCC1 [5-Nitro-2-piperidin-1-yl-benzoic acid] the data give MP 195 °C (via OCHEM).

FC(F)(F)c1nnc2ccc(Cl)nn12 [6-chloro-3-(trifluoromethyl)[1,2,4]triazolo[4,3-b]pyridazine] has MP 70 °C (via OCHEM). The entry for N#CCc1ccc(C(N)=O)cc1 [4-(Cyanomethyl)benzamide] lists MP 187 °C (via OCHEM). Listed for COc1cc2[nH]c(=N)sc2cc1OC [2-Benzothiazolamine, 5,6-dimethoxy-]: MP 225 °C (via OCHEM). The entry for CCC(=O)Nc1cccc(C(=O)O)c1 [3-(propanoylamino)benzoic Acid] lists MP 230 °C (via OCHEM).

For CNc1ccc(N(CCO)CCO)cc1[N+](=O)[O-] [HC Blue 1] the data give MP 102.8 °C (via PubChem). Listed for CN(C)c1ccc([N+](=O)[O-])cc1C(=O)O [2-(dimethylamino)-5-nitrobenzoic acid]: MP 150 °C (via OCHEM). Listed for Cc1cc(=O)oc2cc(OCC(=O)NN)ccc12: MP 180 °C (via OCHEM). The entry for Cc1ccc(CC(=O)O)cc1C [2-(3,4-dimethylphenyl)acetic acid] lists MP 97 °C (via OCHEM).

Listed for C1C[C@@H]2[C@H]3CC[C@H](C3)[C@@H]2C1 [Octahydro-exo-4,7-methano-1H-indene]: MP -89.97 °C (via eChemPortal). COc1ccc(CN)c(F)c1F [2,3-Difluoro-4-methoxybenzylamine] is reported with MP 33.5 °C (via OCHEM). Cc1ccc(C(=O)C(=O)c2ccccc2)cc1C [1-(3,4-dimethylphenyl)-2-phenylethane-1,2-dione] is reported with MP 64 °C (via OCHEM). For O=C(O)CSc1ccc(Br)cc1 [(4-Bromo-phenylsulfanyl)-acetic acid] the data give MP 118 °C (via OCHEM).

O=C(CCl)N1c2ccccc2CCc2ccccc21 is reported with MP 97 °C (via OCHEM). Listed for N.N.O=C(O)c1ccccc1C(=O)O [Benzene-1,2-dicarboxylic acid--ammonia (1/2)]: MP 203.8 °C (via eChemPortal). Listed for CC(O)C(=O)NCCO (stereo unspecified) [Propanamide, 2-hydroxy-N-(2-hydroxyethyl)-]: MP -53 °C (via eChemPortal). Listed for O=C(CCl)N[C@@H](Cc1c[nH]c2ccccc12)C(=O)O [N-(2-Chloroacetyl)-L-tryptophan]: MP 154 °C (via OCHEM).

For NNC(=O)c1n[nH]c(=O)c2ccccc12 [4-oxo-3,4-dihydrophthalazine-1-carbohydrazide] the data give MP 240 °C (via OCHEM). COc1ncnc2nccnc12 [Pteridine, 4-methoxy-] has MP 193 °C (via QSARDB). For CCOc1ccc(S(N)(=O)=O)cc1 [4-ethoxybenzenesulfonamide] the data give MP 153 °C (via OCHEM). Listed for Nc1nc(-c2nc3ccccc3s2)cs1 [4-(1,3-Benzothiazol-2-yl)-1,3-thiazol-2-amine]: MP 249 °C (via OCHEM).

Listed for O=C(O)c1ccc(-n2cnnn2)cc1 [4-Tetrazol-1-yl-benzoic acid]: MP 225 °C (via OCHEM). The entry for Cc1ccc(NNc2ccc(C)cc2)cc1 [1,2-Bis(4-methylphenyl)hydrazine] lists MP 135 °C (via OCHEM).